## Yeast mating assay 1: variants of the scFv Ab-14

Values reported by Engelhart et al. 2022, doi:10.1038/s41597-022-01779-4 (FLAb copy).

Target: peptide PDVDLGDISGINAS, taken from heptad repeat 2 (HR2) of SARS-CoV-2 spike.

Parent: Ab-14, a human scFv built as VH, a 15-residue (Gly4Ser)3 linker, VL. Only the CDRs of the heavy chain vary.
VH: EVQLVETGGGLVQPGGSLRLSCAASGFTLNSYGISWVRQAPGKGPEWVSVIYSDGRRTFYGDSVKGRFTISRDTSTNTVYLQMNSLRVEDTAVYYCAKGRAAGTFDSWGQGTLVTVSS
VL: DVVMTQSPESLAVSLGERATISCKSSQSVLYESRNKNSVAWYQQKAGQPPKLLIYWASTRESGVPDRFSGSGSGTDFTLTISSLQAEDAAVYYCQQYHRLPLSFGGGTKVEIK

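The starting antibody came from a phage panning campaign against this peptide. AAYL49 was designed without a model: most single CDR substitutions and a random sample of double and triple ones. The assay is AlphaSeq: two haploid yeast populations carry antibody and antigen on their surface. After mating in shaken culture at 30 °C for 16 h, diploids were selected and their barcode pairs sequenced. A regression on co-assayed BCL2-family reference pairs converts the normalised counts of each replicate to an apparent Kd. Mating was done three times.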

Substitutions are numbered in sequence along the VH above, starting at 1 (not Kabat). This list gathers variants with a substitution at S53 (VH, numbered from residue 1). Values are apparent Kd, the geometric mean of the replicates that gave a signal; lower means stronger binding. Where no diploid with the target was found in any replicate, the entry reads "nd": below detection, most likely a poor binder, though not proof of it. Empty control strains, which show no peptide, gave a signal in 15% of pairings with library AAYL49; the median was 11 µM and 95% of these signals were weaker than 680 nM. No background was subtracted. Parent in this assay: reference entry 4.4 nM, copy in this library 13 µM (one replicate of three).

With L29S+S53I+D54K the result was nd (0 of 3 replicates). The variant S31L+S53I+S63G showed nd (0 of 3 replicates). For S53T+G55C+T104Y, the assay gave nd (0 of 3 replicates). The variant L29Y+S53K+F59Y gave 86 µM (2 of 3 replicates). The variant Y32I+S53D+T104L gave 31 µM (1 of 3 replicates). With S53Y+T58I the result was 39 µM (2 of 3 replicates).

For G33Q+S53T+D62H, the assay gave nd (0 of 3 replicates). For S53V+A101R+T104W, the assay gave 16 nM (3 of 3 replicates). The variant S53I+A101G+A102Q showed nd (0 of 3 replicates). The variant S53A+D54S+S63G showed 1.6 µM (2 of 3 replicates). The variant L29D+S53T+K65T showed nd (0 of 3 replicates). For I51L+S53E+D106S, the assay gave nd (0 of 3 replicates).

The variant S53V+R56Q showed 570 nM (3 of 3 replicates). The variant S53L+K65M+T104E gave 740 µM (1 of 3 replicates). With T28Q+S53C+S107P the result was nd (0 of 3 replicates). With I51P+S53Q+G61M the result was nd (0 of 3 replicates). The variant S53D+K65P+F105Y gave nd (0 of 3 replicates). The variant S53P gave 770 nM (2 of 3 replicates).

For S53P+R57T+Y60N, the assay gave nd (0 of 3 replicates). With S53V+F105E+S107A the result was 490 nM (3 of 3 replicates). With S53D+R56I+T104V the result was nd (0 of 3 replicates). The variant V50G+S53L+A102F gave nd (0 of 3 replicates). For S53Q, the assay gave 310 nM (3 of 3 replicates). With S53N+V64D+S107G the result was nd (0 of 3 replicates).

With S35A+I51Q+S53M the result was 48 µM (1 of 3 replicates). For Y52F+S53T, the assay gave 4.2 µM (1 of 3 replicates). For G26Q+Y32R+S53C, the assay gave nd (0 of 3 replicates). For S53Q+R56N+R57D, the assay gave nd (0 of 3 replicates). The variant S53G+G99N+T104V showed nd (0 of 3 replicates). With I34R+S53T the result was 5.9 µM (1 of 3 replicates).

From the list, the first 5 with no signal in any replicate:

| changes | apparent Kd | seen in |
|---|---|---|
| L29S+S53I+D54K | nd | 0/3 |
| S31L+S53I+S63G | nd | 0/3 |
| S53T+G55C+T104Y | nd | 0/3 |
| G33Q+S53T+D62H | nd | 0/3 |
| S53I+A101G+A102Q | nd | 0/3 |